Results: patent US9527849B2, “Salt and polymorph of pyrazolopyrimidinone compound, and pharmaceutical composition containing the same, preparation method and use thereof” (TOPHARMAN SHANGHAI CO., LTD., priority 2011, dated 2016)

Chains of the proteins cited; added tags and fusions are not shown. Lines headed by an entry give the natural chain unless they say otherwise; changes in a name come on top.
UniProt O00408, whole entry: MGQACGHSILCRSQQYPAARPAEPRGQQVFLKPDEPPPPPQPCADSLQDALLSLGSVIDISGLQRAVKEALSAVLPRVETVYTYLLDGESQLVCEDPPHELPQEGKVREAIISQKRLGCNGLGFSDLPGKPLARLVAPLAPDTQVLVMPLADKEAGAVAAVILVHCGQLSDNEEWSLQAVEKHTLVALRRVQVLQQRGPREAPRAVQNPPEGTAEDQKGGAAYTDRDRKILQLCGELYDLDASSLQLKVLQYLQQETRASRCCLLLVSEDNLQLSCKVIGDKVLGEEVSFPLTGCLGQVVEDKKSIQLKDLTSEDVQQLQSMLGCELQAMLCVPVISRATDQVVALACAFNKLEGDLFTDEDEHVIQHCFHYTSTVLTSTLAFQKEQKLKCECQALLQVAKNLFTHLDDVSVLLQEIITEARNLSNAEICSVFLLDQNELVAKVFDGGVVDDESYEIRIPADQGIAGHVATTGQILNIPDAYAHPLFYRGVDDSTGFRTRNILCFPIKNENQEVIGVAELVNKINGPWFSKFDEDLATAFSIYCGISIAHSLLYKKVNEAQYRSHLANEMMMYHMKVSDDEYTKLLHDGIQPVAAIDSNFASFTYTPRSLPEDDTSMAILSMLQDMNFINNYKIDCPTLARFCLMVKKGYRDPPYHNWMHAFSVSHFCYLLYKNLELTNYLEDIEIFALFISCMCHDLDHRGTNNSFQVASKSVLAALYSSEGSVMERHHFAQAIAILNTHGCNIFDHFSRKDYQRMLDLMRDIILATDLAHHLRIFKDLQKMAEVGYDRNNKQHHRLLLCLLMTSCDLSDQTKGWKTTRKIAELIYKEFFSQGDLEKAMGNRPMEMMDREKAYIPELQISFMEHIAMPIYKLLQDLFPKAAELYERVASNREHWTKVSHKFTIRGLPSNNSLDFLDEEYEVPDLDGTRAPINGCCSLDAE
UniProt O76083: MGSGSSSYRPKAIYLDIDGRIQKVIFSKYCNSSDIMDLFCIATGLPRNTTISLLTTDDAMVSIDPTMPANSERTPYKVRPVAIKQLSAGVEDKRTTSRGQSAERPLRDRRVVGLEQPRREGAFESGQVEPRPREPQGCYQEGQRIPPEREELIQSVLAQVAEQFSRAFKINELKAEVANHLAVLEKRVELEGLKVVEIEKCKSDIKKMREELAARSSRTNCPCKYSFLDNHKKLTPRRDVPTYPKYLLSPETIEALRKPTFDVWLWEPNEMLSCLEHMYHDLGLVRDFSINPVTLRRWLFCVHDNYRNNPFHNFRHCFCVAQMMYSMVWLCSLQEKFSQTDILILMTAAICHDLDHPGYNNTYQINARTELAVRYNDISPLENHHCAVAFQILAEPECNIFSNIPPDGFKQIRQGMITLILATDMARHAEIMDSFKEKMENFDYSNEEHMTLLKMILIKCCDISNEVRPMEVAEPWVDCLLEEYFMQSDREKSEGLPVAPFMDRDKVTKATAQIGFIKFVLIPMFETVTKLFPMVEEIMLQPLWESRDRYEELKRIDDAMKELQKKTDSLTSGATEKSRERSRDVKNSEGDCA

How the values were obtained:
PDE2 = PDE2 (Homo sapiens, UniProt O00408); experiment: In vitro activity against PDE isoenzyme; assay type: biochemical
PDE9 = PDE9 (Homo sapiens, UniProt O76083); experiment: In vitro activity against PDE isoenzyme; assay type: biochemical

Question: Which IC50 (PDE2) does the source give for `CCCc1nn(C)c2c(=O)[nH]c(-c3cc(S(=O)(=O)N4CCN(C)CC4)ccc3OCC)nc12` [Sildenafil, reference compound] here?
Answer: 6.84 µM

Question: What about the IC50 (PDE9) of the same molecule?
Answer: > 100 µM
